In brackets after ≈: the same amount, converted by molar mass.
Experiments:
[1] = system: HEK; test: HEK toxicity
[2] = system: M. smegmatis mc2 155; test: M. smegmatis growth inhibition (MIC)

Compound	Percent HEK toxicity 6.25 μg/mL [1]	MIC, μM M. smegmatis mc2 155 [2]
CNCCCC[C@@H](CN)NC[C@H](CCCCNC)NCCc1cccc2ccccc12	20.9%	50 µM (≈ 21.4 µg/mL)
CNCCCC[C@H](CN)NC[C@H](CCCNC(=N)N)NCc1cccc2ccccc12	18.7%	25 µM (≈ 10.7 µg/mL)
CNCCCC[C@@H](CN[C@H](CN)CCCN)NCCc1cccc2ccccc12	17.0%	50 µM (≈ 20 µg/mL)
CCC[C@H](CN[C@H](CN)CCCN)NCCc1cccc2ccccc12	8.2%	50 µM (≈ 17.8 µg/mL)
CNCCCC[C@@H](CN)NC[C@H](CCCNC(=N)N)NCCc1cccc2ccccc12	10.0%	25 µM (≈ 11 µg/mL)
N=C(N)NCCC[C@@H](CN[C@H](CN)CCCN)NCCc1cccc2ccccc12	16.3%	50 µM (≈ 20.7 µg/mL)
CNCCCC[C@H](CN)NC[C@H](CCCCNC)NCCc1cccc2ccccc12	5.2%	25 µM (≈ 10.7 µg/mL)
CCC[C@H](CN[C@H](CN)CCCCNC)NCCc1cccc2ccccc12	16.6%	50 µM (≈ 19.2 µg/mL)
CCC[C@H](CN[C@@H](CN)CCCCNC)NCc1cccc2ccccc12	11.7%	50 µM (≈ 18.5 µg/mL)

— patent publication US9988341B2, “Bacterial topoisomerase inhibitors and use thereof” (THE FLORIDA INTERNATIONAL UNIVERSITY BOARD OF TRUSTEES, priority 2016, dated 2018)
